Biological target: PsCap5 (Pseudomonas syringae pv. actinidiae, UniProt A0A2P0QGK5)
Format: biochemical
Settings: ratio of IC50s, LlCap5 vs PsCap5

Sequences of proteins named here, by UniProt entry; tags and fusion partners are left off. Residues count along the entry.
UniProt A0A2P0QGK5, 10-397 limits assumed: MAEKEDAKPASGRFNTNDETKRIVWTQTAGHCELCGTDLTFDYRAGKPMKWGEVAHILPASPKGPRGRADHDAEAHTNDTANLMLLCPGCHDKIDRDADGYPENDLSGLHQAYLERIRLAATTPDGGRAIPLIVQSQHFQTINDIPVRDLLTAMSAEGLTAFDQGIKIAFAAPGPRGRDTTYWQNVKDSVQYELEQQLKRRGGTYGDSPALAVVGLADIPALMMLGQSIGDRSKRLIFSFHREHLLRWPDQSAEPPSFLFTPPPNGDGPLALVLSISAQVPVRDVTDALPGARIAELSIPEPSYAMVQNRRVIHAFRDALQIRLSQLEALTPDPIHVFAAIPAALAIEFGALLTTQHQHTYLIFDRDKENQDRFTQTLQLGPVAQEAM

Compound: Cc1ccc(CNC(=O)c2ccc(Cn3c(=O)c4ccccc4n(CC(=O)NCc4ccco4)c3=O)cc2)cc1 [Compound 20]
- higher potency against PsCap5 compared to LlCap5: ~5 ×

Source: article PMC13253105, “Chemical inhibition of a CBASS anti-bacteriophage defense” (iScience, 2026)
